The values below come from ChEMBL document CHEMBL3576845, “Discovery of Novel Multiacting Topoisomerase I/II and Histone Deacetylase Inhibitors” (ACS Med Chem Lett, 2015).

For the experiment, the target named is T1, Histone deacetylase 8 (Homo sapiens, UniProt Q9BY41).
T1 sequence (Q9BY41 whole entry): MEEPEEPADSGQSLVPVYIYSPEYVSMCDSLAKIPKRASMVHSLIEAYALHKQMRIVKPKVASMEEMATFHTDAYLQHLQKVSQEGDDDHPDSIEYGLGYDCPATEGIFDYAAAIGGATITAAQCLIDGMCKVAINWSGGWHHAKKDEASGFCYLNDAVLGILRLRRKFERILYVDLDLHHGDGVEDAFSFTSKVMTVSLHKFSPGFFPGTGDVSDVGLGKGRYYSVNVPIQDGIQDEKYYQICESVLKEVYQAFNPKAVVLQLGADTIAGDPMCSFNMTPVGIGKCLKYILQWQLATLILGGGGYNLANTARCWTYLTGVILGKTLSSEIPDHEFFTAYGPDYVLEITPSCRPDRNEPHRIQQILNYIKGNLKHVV
Description: Inhibition of recombinant C-terminal His-tagged full length human HDAC8 expressed in baculovirus infected insect Sf9 cells using fluorogenic HDAC class 2a substrate after 30 mins by fluorescence assay.

As usually defined, the IC50 is the concentration needed to halve the response being measured. As for `O=C(CCCCCCC(=O)Nc1ccccc1)NO` [VORINOSTAT], the IC50 turned out to be 8.8 µM.
